The values below come from US20100223737A1, “ORGANIC CATALYST WITH ENHANCED ENZYME COMPATIBLITY” (priority 2009, published 2010).

By UniProt entry, the sequences of proteins in these tests, tags left out. Where a name states a change or a piece, a line headed by the entry shows the natural chain unless it says otherwise.
UniProt P06278: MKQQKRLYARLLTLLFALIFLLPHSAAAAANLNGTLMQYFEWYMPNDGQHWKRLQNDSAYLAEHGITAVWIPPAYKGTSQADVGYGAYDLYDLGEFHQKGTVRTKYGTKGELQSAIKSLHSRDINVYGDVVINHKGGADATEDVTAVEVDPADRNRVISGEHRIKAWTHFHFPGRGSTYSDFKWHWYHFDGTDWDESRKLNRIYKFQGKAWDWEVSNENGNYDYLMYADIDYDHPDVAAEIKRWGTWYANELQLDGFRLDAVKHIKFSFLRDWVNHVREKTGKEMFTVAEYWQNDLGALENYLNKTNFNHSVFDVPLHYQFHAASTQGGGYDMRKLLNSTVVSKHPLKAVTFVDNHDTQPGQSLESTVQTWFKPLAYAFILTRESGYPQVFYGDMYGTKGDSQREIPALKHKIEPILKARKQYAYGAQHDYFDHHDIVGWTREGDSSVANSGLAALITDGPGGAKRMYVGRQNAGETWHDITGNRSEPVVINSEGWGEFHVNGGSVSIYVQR

This assay addresses Termamyl (Bacillus licheniformis, UniProt P06278). Description: Organic Catalyst/Enzyme Compatibility Test (alpha amylase activity assay), Termamyl. Particulars: (Ac/Ab)x100; [Peracetic Acid]=5.0 ppm; [organic catalyst]=0.5 ppm; 40° C.; sample at 7 minutes 45 seconds.
Take “Sulfuric acid mono-[2-(3,4-dihydro-isoquinolin-2-yl)-1-(2-butyloctyloxymethyl)-ethyl]ester, internal salt”: the “Enzyme Compatibility Values ECVter” value worked out at 101.

With “Sulfuric acid mono-[2-(3,4-dihydro-isoquinolin-2-yl)-1-(2-propylheptyloxymethyl)-ethyl]ester, internal salt”, the “Enzyme Compatibility Values ECVter” value was found to be 98.

Turning to “Sulfuric acid mono-[2-(3,4-dihydro-isoguinolin-2-yl)-1-(iso-decyloxymethyl)-ethyl]ester, internal salt”, the “Enzyme Compatibility Values ECVter” value amounted to 98.

Consider “Sulfuric acid mono-[2-(3,4-dihydro-isoquinolin-2-yl)-1-(iso-tridecyloxymethyl)-ethyl]ester, internal salt”, for which the “Enzyme Compatibility Values ECVter” value is reported as 99.

Take “Sulfuric acid mono-[2-(3,4-dihydro-isoquinolin-2-yl)-1-(iso-nonyloxymethyl)-ethyl]ester, internal salt”: the “Enzyme Compatibility Values ECVter” value is given as 86.
